Measured values from patent publication US20260199496A1, “LINKER, LINKER-CONTAINING ANTIBODY DRUG CONJUGATE, AND PREPARATION METHOD THEREFOR AND USE THEREOF” (CHENGDU CHIPSCREEN NEWWAY BIOSCIENCES CO., LTD., priority 2022, published 2026).

Target: Rat PD-L1-his (Rattus norvegicus, UniProt D4AE25)
Test: SPR (Biacore T200) affinity for Rat PD-L1-his
Details: ligand Rat-PD-L1-His, 1:1 binding model
Method: […] Cyno PD-L1-his was captured onto the chip surface. The antibody-drug conjugate samples and the naked antibody sample were 2-fold diluted with 1×PBST to give a total of 7 concentration points, with the sample concentrations all being 25 nM-0.39 nM. The program was set. The samples were then loaded, and the program was executed. Data were analyzed using the Biacore Evaluation Software with the 1:1 binding model for kinetic fitting. The above steps were repeated. 2 μg/mL hPD-L1-his, 5 μg/mL mPD-L1-his, and 5 µg/mL Rat PD-L1-his were captured onto the chip surface separately. The above 4 samples were 2-fold diluted with 1×PBST. […] The program was set. The samples were then loaded, and the program was executed. Data were analyzed using the Biacore Evaluation Software with the 1:1 binding model for kinetic fitting.

Work on atezolizumab [Ate antibody] yielded a Kd of 343 pM.
